These are literature values, as cited in US5744485A, “Carbamates and ureas as modifiers of multi-drug resistance” (Vertex Pharmaceuticals Incorporated, priority 1995, dated 1998).

For this series the following is noted: Hait et al.; cited from earlier work.

“11-methyl-leucine cyclosporin [11-met-leu CsA]”: the immunosuppression entry is given as “do not exert an immunosuppressive effect”.
